Laboratory results published in US20060095982A1 (priority 2002, published 2006).
Some compounds may have been tested in ways that are not shown here.

Amino acid sequences for entries named in this document (tags omitted).
UniProt P08684, whole entry: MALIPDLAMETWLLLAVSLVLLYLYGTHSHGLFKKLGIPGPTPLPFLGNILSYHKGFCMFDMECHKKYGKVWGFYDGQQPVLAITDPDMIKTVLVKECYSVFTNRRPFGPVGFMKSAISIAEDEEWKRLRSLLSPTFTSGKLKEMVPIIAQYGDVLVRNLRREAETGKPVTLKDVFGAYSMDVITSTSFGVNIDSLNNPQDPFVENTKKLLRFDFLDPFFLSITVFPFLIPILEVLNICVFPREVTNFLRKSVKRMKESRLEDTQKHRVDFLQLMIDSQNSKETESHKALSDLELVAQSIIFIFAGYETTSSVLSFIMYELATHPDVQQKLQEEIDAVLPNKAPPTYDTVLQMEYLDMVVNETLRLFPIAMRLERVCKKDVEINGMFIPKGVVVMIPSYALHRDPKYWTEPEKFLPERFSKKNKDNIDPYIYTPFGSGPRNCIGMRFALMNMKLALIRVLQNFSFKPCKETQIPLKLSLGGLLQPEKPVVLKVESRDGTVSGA

Target: mammalian P450 3A4 (Homo sapiens, UniProt P08684)
Experiment: Degradation of nitramine explosives by mammalian P450 3A4
Conditions: preliminary results

## O=[N+]([O-])N1CN([N+](=O)[O-])CN([N+](=O)[O-])C1
  degradation by mammalian P450 3A4: ability to degrade
